This is a selection; strong and weak results do not stand in their true shares. Some tests of the compounds listed are not included; inactive here does not mean inactive elsewhere. Calls of active or inactive are those of the source.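 Rule for the calls: active = inhibition above about 50% at the single test dose (limit read from the data); inactive = the rest.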
Target: Sentrin-specific protease 7 (Homo sapiens) (UniProt Q9BQF6)
Assay: blockers of human SENP7 peptidase activity – biochemical, luminescence, uHTS, primary screen (AID 434973);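 note: plate controls were DMSO with enzyme for no effect and no enzyme buffer wells for full effect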
Conditions: recombinant SENP7, Z-RLRGG-aminoluciferin luminescence, 40 min; at 5 µM; stronger effect = higher value

Amino acid sequences for entries named in this document (tags omitted). Residues count along the entry.
UniProt Q9BQF6, 706-1050 limits assumed: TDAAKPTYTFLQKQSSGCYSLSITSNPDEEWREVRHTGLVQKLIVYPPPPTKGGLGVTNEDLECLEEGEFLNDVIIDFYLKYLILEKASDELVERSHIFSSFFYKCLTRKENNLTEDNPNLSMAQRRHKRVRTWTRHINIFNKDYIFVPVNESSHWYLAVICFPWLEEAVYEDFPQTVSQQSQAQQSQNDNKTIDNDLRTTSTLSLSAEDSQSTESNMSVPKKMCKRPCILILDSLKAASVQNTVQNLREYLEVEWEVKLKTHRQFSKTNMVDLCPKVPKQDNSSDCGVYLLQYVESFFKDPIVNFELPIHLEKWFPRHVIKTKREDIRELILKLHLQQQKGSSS

SMILES	inhibition
COc1cc(C(=O)NCC2(N(C)C)CCCCC2)c([N+](=O)[O-])cc1OC	inactive: -9.84%
CN(C)C1(CNC(=O)c2ccc(Br)cc2)CCCCC1	inactive: 5.9%
O=C(NCC1(N2CCCCC2)CCCCC1)c1cccc(Cl)c1	inactive: -5.23%
COc1ccc(Cl)cc1C(=O)NCC1(N(C)C)CCCCC1	inactive: 7.42%
COc1cccc(C(=O)NCC2(N3CCCCC3)CCCCC2)c1	inactive: 4.06%
O=C(OC1CN2CCC1CC2)C(CO)(c1ccccc1)c1ccccc1 (centres undefined)	inactive: 7.01%
CN(C)c1cccc(C(=O)NCC2(N(C)C)CCCCC2)c1	inactive: -3.69%
CC(C)Oc1ccc(C(=O)NCC2(N(C)C)CCCCC2)cc1	inactive: -3%
COc1ccc(Br)c(C(=O)NCC2(N3CCCCC3)CCCCC2)c1	inactive: 9.74%
CN1[C@@H]2CC[C@H]1CC(OC(=O)C(O)(c1ccccc1)c1ccccc1)C2 (some centres undefined)	inactive: 6.69%
O=C(NCC1(N2CCCCC2)CCCCC1)c1cc([N+](=O)[O-])ccc1Cl	inactive: 4.37%
Cc1ccc(C(=O)NCC2(N3CCCCC3)CCCCC2)cc1	inactive: -0.737%
CC(C)N1C(=O)CC2(CCN(CCOC(=O)C(O)(c3ccccc3)c3ccccc3)CC2)C1=O	inactive: -0.0858%
COc1cc(SC)ccc1C(=O)NCC1(N(C)C)CCCCC1	inactive: 2.31%
CCN(CC)CC(C)C(C)OC(=O)C(O)(c1ccccc1)c1ccccc1 (centres undefined)	inactive: 3.33%
CN(C)c1ccc(C(=O)NCC2(N(C)C)CCCCC2)cc1	inactive: 3.79%
CN(C)C1CCCC1OC(=O)C(O)(c1ccccc1)c1ccccc1 (centres undefined)	inactive: 2.96%
Cc1ccccc1C(=O)NCC1(N2CCCCC2)CCCCC1	inactive: 2.95%
O=C(NCC1(N2CCCCC2)CCCCC1)c1cccc(Br)c1	inactive: 0.0217%
CCN1CCCC(OC(=O)C2(O)c3ccccc3C=Cc3ccccc32)C1 (centres undefined)	inactive: -3.45%
Cc1cc(C(=O)NCC2(N3CCCCC3)CCCCC2)ccc1[N+](=O)[O-]	inactive: 11%
COc1ccc(C(=O)NCC2(N(C)C)CCCCC2)cc1	inactive: -10.6%
O=C(NCC1(N2CCCCC2)CCCCC1)c1cc(F)c(F)cc1Cl	inactive: 4.85%
C=CCN1CCN(CCOC(=O)C(O)(c2ccccc2)c2ccccc2)CC1	inactive: 0.442%

Reference: PubChem BioAssay AID434973 (Sanford-Burnham Center for Chemical Genomics, 2010)
